Source: US10640487B2, “Solid state forms of Nilotinib salts” (Teva Pharmaceuticals USA, Inc., priority 2016, dated 2020)

Details: compared to form B of Nilotinib HCl described in WO'870

bulk density: high bulk density
Substance: Nilotinib hydrochloride L-tartaric acid
